Literature values, collected in patent publication US8969530B2, “Anti-clathrin heavy chain monoclonal antibody for inhibition of tumor angiogenesis and growth and application thereof” (Academia Sinica, priority 2011, dated 2015).

Tested on: pancreatic cancer
Conditions: clinical trial, in combination with small molecule drugs; cited from earlier work

With cetuximab as the substance, how does the “improvement in overall survival of pancreatic cancer patients” value read?
Its value is “no significant improvement”.
